Target: human GPR120 (Homo sapiens, UniProt Q5NUL3)
Test: Human GPR120 IP1 assay (inositol phosphate turnover)
Conditions: read-out: Human GPR120 IP1 EC50; IP1 accumulation in CHO-K1 cells stably expressing the short form of human GPR120; tested form: 2HCl
Source text: The binding of small molecule agonists to the G-protein-coupled receptor GPR120 activates phospholipase C, and leads to the generation of inositol 1,4,5-trisphosphate (InsP3 or IP3). IP3 is subsequently de-phosphorylated to IP1, which accumulates in cells and is stable in the presence of lithium chloride.
In the present method, agonist-induced activation of the human and rat GPR120 receptor was monitored by measuring the accumulation of IP1 in CHO-K1 cells that were stably expressing the short form of human GPR120 (Accession #NM_001195755) or HEK293 cells stably expressing rat GPR120 (Accession #NM_001047088). Following agonist addition, GPR120 activation and subsequent accumulation of IP1 was measured using a homogeneous Time Resolved Fluorescence-based ELISA commercially available from CisBio (IP-one ELISA Kit). The IP-One ELISA was a competitive immunoassay which uses IP1 labeled with […] and a terbium cryptate-labeled anti-IP1 monoclonal antibody. […] The signal loss was then back calculated to IP1 concentration using an IP1 standard curve. […]
The assay was performed in 384-well format. […] The plates were then read in a Perkin ElmerEnVision or equivalent reader able to measure FRET. […] The data was normalized to % activity using a reference compound, and the EC50 values were determined using a standard 4-parameter fit.

Chains of the proteins cited; added tags and fusions are not shown.
UniProt Q5NUL3, whole entry: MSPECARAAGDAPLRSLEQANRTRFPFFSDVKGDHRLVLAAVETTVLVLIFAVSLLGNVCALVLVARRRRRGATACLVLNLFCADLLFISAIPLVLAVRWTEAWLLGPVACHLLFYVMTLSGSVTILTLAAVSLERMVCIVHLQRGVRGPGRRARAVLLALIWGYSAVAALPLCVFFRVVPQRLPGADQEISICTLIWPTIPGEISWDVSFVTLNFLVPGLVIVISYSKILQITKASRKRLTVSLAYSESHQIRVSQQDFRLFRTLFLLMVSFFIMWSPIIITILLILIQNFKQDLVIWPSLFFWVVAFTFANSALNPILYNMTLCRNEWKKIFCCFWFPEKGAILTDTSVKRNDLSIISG

For `CCOc1cc([C@H]2C[C@H](Oc3ccc(-c4cc(O)no4)cn3)C2)ccn1` (relative stereo), the EC50 was 28 nM.

Reference: US10864211B2, “Hydroxy isoxazole compounds useful as GPR120 agonists” (Merck Sharp & Dohme Corp., priority 2016, dated 2020)
